# Target: T1, Trypsinogen 16 (Mus musculus, UniProt Q9Z1R9)
# T1 sequence (Q9Z1R9 whole entry): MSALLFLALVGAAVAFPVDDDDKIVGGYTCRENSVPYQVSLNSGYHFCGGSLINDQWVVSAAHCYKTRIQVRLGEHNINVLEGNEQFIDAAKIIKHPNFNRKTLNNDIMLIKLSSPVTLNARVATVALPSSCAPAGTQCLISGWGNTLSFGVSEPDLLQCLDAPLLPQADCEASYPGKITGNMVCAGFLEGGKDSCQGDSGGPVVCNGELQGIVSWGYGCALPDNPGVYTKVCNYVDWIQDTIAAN
# Assay: Inhibition Assay
# Conditions: pH 8; 25 °C
# Method: The compound was dissolved in dimethyl sulfoxide (DMSO), and diluted to an arbitrary concentration (A). A was 100-fold diluted with a buffer (0.1 M Tris (pH 8.0), 0.15 M NaCl, 10 mM CaCl2, 0.05% Brij38) (B). The r-h trypsin was diluted with a buffer to 0.088 ug/mL, and the m-trypsin was diluted with a buffer to 1/50 (C). […] The substrate solution of a substrate for the enzyme reaction, BZiPAR, (Rhodamine Reference Substrate) was diluted with a buffer to 5 umol/L (D). B; 5 uL, C; 5 uL, and D; 10 uL were added to a 384-plate, and incubated at room temperature for 30 minutes. The fluorescent signals were detected with Ex/Em = 497/520 using Tecan Safire Fluorometer. The compound was reviewed from 2500 nM to its 3-fold value, 0.0075 nM, at 12 concentrations, and the inhibitory rate of each compound was calculated.
compound,measurement,value
"N=C(N)Nc1ccc(C(=O)Oc2ccc(CCC(=O)N[C@@H](CC(=O)O)c3ccccc3)c(Cl)c2)cc1 [US9199927, 23]",IC50,0.28 nM

# Reference: BindingDB's records for patent US9199927 (Astellas Pharma, 2015)
